# Data as given in patent US6403034B1, “Method of reducing the concentration of recalcitrant organic contamination in a soil matrix” (priority 1995, dated 2002).
# Experiment: Pesticide Test 2: gaseous ozone injected into soil column
# Format: physicochemical
# Settings: for Soil Column T = 75 hours / percent removed: 75 hours of 300 mL/min of 5% ozone; for Soil Column T = 0: before ozonation
Substance,Soil Column T = 75 hours,percent removed,Soil Column T = 0
"4,4′-DDD","15,500 μg/kg",70.5%,"52,500 μg/kg"
"4,4′-DDE","3,650 μg/kg",69.6%,"12,000 μg/kg"
"4,4′-DDT","41,000 μg/kg",67.2%,"125,000 μg/kg"
